According to US6683162B2, “Targeted alpha particle therapy using actinium-255 conjugates” (Sloan Kettering Institute of Cancer Research, priority 2000, dated 2004):

Tested on: human BT-474 breast carcinoma cells
Experiment: In vitro cytotoxicity (LD50), BT-474
Type: cell-based
Details: BT-474 (specific); S.A. 1.9 GBq/g
Method: The potency and specificity of 225Ac-HuM195-DOTA was then evaluated in-vitro as a function of specific activity and activity concentration (FIG. 6). A suspension of HL60 cells were washed twice with complete media and then dispensed into a 96 well cell culture plate in complete media supplemented with 2% human serum. The volume was 100 μl and the cells were at a density of 5×10^5 cells/ml. Next a serial dilultion of purified ^225Ac-HuM195-DOTA was added to the wells. The diluent was complete media and volume added was 100 μl. The starting activity was 10 nCi/ml, which was diluted 5-fold for each subsequent tube. […] The cells were incubated for 2 days at 37° C., following which tritiated thymidine was added (0.5 pC, in 50 il complete media/well). The cells were incubated at 37° C. for an additional 5 h, then harvested using a Combi Cell Harvestor (Skatron Instruments). Cell viability was determined by analyzing the degree of tritiated thymidine incorporated into the DNA of the treated cells relative to control cells.
The potency and specificity of [225Ac]IgG for killing single cancer cells is determined using 5E4 cells in 0.2 mL per well in 96 well plates. […] Non-specific killing is measured after target cells are blocked with a 100-10000-fold excess of unlabeled IgG before plating and subsequent addition of [225Ac]IgG.

[Ac-225]Herceptin: 225Ac generator on Herceptin, humanized IgG1 directed against HER2
LD50: 5.6 Bq/mL
